Measurements published in PubChem BioAssay AID803 (The Scripps Research Institute Molecular Screening Center, 2007).
Only a part is listed here, and it is no random draw. Calls of active or inactive are those of the source. Rule as the data show it: active = activation above about 5% (passing the limit was not always enough); inactive = the rest.

Protein sequences, listed by entry. Tags and fused reporters are not part of them.
UniProt O43603, whole entry: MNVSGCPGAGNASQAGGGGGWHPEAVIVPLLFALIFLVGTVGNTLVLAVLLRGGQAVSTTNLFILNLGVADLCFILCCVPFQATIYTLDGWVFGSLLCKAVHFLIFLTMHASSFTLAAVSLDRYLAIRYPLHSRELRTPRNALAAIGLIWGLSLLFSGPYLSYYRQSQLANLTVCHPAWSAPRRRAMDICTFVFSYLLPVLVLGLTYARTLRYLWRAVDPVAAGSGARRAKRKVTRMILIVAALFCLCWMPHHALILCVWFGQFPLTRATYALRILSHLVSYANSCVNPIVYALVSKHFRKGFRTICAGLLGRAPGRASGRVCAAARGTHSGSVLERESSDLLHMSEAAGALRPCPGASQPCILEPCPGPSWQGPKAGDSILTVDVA

molecular target: Galanin receptor type 2 (Homo sapiens) (UniProt O43603); assay: GALR2 receptor agonists, primary screen, cell-based (AID 803); conditions: GALR2-expressing cells, agonist activation read-out; at 5.6 µM; active compounds read high;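 also: 0% = vehicle buffer wells and 100% = reference agonist at full effect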

Row | SMILES | activation
1 | CP(=O)(Nc1ccccc1Br)Oc1ccccc1 (stereo not given) | inactive: -1.39%
2 | CP(=S)(Nn1cnnc1)Oc1ccccc1 (stereo not given) | inactive: -0.09%
3 | Cc1cc(SC(NC(=O)c2ccccc2)C(Cl)(Cl)Cl)nc(C(C)C)n1 (stereo not given) | inactive: -0.12%
4 | CP(=O)(Nc1ccccn1)Oc1ccc(Cl)cc1 (stereo not given) | inactive: -2.33%
5 | CCOC(=O)c1ccc(NP(C)(=O)Oc2ccc(OC)cc2)cc1 (stereo not given) | inactive: 0.62%
6 | CCOP(C)(=S)SCC(=O)NC(C)C(=O)O (stereo not given) | inactive: -0.52%
7 | O=C(COc1ccccc1)OC1CN2CCC1CC2 (stereo not given) | inactive: -0.2%
8 | CP(=O)(NC(=O)Nc1ccccc1)Oc1ccccc1 (stereo not given) | inactive: -1.17%
9 | Cc1cc(C)cc(OP(C)(=O)Nc2ccc(SC(F)(F)F)cc2)c1 (stereo not given) | inactive: -0.59%
10 | COP1(=S)c2c(C)nn(CCC#N)c2N=C(c2ccc(F)cc2)N1C (stereo not given) | inactive: -0.56%
11 | Cc1cccc(C)c1OP(C)(=O)Nc1ccc(SC(F)(F)F)cc1 (stereo not given) | inactive: 0.65%
12 | O=C(OC1CN2CCC1CC2)C12CC3CC(CC(C3)C1)C2 (stereo not given) | inactive: 0.19%
13 | Cc1c2c(nc3ccccc13)SC(C(Cl)Cl)C2 (stereo not given) | inactive: -0.3%
14 | CCN(CC)C(=S)SC(NC=O)C(Cl)(Cl)Cl (stereo not given) | inactive: 0.33%
15 | COc1ccc(OP(C)(=O)Nc2cccc(F)c2)cc1 (stereo not given) | inactive: -3.21%
16 | O=[N+]([O-])c1cc([N+](=O)[O-])c(-c2ccn[nH]2)s1 | inactive: -0.88%
17 | COc1ccccc1OP(C)(=O)Nc1ccc(C)cc1 (stereo not given) | inactive: -1.1%
18 | Cc1ccc(NP(C)(=O)Oc2ccccc2)c(C)c1 (stereo not given) | inactive: -1.52%
19 | CCOC(=O)c1ccc(NP(C)(=O)Oc2ccccc2)cc1 (stereo not given) | inactive: -1.22%
20 | ClCCSc1nnc(-c2cccnc2)o1 | inactive: -3.61%
21 | Cc1ccc2nc3c(c(C)c2c1)CC(C(Cl)Cl)S3 (stereo not given) | inactive: -1.81%
22 | CC(C)(C)c1ccc(OP(C)(=O)Nc2ccc(SC(F)(F)F)cc2)cc1 (stereo not given) | inactive: 2.18%

Row | SMILES | activation
23 | O=[N+]([O-])c1ccc2c(c1)nnn2O | inactive: -1.98%
24 | CC1=NCCc2c1[nH]c1ccccc21.O=[N+]([O-])c1cc([N+](=O)[O-])c(O)c([N+](=O)[O-])c1 | inactive: -0.5%
25 | CCOP1(=S)c2c(C)nn(CCC#N)c2N=C(c2ccc(F)cc2)N1C (stereo not given) | inactive: -1.45%
26 | CCOP1(=S)c2c(C)nn(CCC#N)c2N=C(c2ccccc2F)N1C (stereo not given) | inactive: -1.52%
27 | O=P(Nc1nccs1)(c1ccccc1)c1nc2ccccc2s1 (stereo not given) | inactive: -2.6%
28 | CCOP(=O)(Nc1cccc2ccccc12)OCC | inactive: 0.05%
29 | Cc1ccc(C)c(NP(C)(=O)Oc2ccccc2)c1 (stereo not given) | inactive: -0.79%
30 | Cc1cc(C)cc(OP(C)(=O)Nc2ccccn2)c1 (stereo not given) | inactive: -1.38%
31 | Cc1ccc(NCCc2c([N+](=O)[O-])cc([N+](=O)[O-])cc2[N+](=O)[O-])cc1 | inactive: -1.1%
32 | CCOC(=O)c1ccc(NP(C)(=O)Oc2cc(C)cc(C)c2)cc1 (stereo not given) | inactive: -0.29%
33 | Cc1cccc(OCC(=O)OC2CN3CCC2CC3)c1 (stereo not given) | inactive: -2.31%
34 | Cc1cc(C)cc(OP(C)(=O)Nc2ccc(C)cc2C)c1 (stereo not given) | inactive: -2.04%
35 | Cc1nc2ccc3ccccc3c2s1.O=[N+]([O-])c1cc([N+](=O)[O-])c(O)c([N+](=O)[O-])c1 | inactive: -2.43%
36 | CC1(CBr)Cn2c(nc3ccccc3c2=O)S1 (stereo not given) | inactive: -0.39%
37 | Clc1n[nH]nc1-c1nn[nH][15n]1 | inactive: -0.42%
38 | O=P1(Nc2ccccn2)COc2ccccc2OC1 | inactive: -1.34%
39 | Cc1ccc(OCC(=O)OC2CN3CCC2CC3)cc1 (stereo not given) | inactive: -1.71%
40 | O=P1(Nc2ccc(Br)cn2)COc2ccccc2OC1 | inactive: -1.68%
41 | CP(=O)(Nc1ccc(SC(F)(F)F)cc1)Oc1ccccc1 (stereo not given) | inactive: 0.17%
42 | COc1ccccc1OP(C)(=O)Nc1c(C)cccc1C (stereo not given) | inactive: -3.74%
43 | CN1CCCCC1COC(=O)C1(O)c2ccccc2CCc2ccccc21 (stereo not given) | inactive: 0.67%
44 | O=P1(Nc2ncccn2)COc2ccccc2OC1 | inactive: -2.46%

Row | SMILES | activation
45 | COc1cc(C2NCCC3(OCCO3)C2(C)C)cc(OC)c1OC.O=[N+]([O-])c1cc([N+](=O)[O-])c(O)c([N+](=O)[O-])c1 (stereo not given) | inactive: -0.82%
46 | Cc1nn(-c2ccccc2)c2c1P(=O)(N1CCOCC1)N(C)C(c1ccccc1)=N2 (stereo not given) | inactive: 0.79%
47 | C(Cc1nn[nH]n1)Cc1nn[nH]n1 | inactive: -0.5%
48 | O=C(OC1CN2CCC1CC2)c1cccc(Cl)c1 (stereo not given) | inactive: -2.44%
49 | CC(=O)NC(SC(=S)N(C)C)C(Cl)(Cl)Cl (stereo not given) | inactive: -3.17%
50 | CN(C)CCOC(=O)C(O)(c1ccccc1)C1CCCCC1 (stereo not given) | inactive: -2.3%
51 | COc1ccc(OP(C)(=O)Nc2cccc(Br)c2)cc1 (stereo not given) | inactive: -2.23%
52 | Cc1ccccc1NP(C)(=O)Nc1ccccc1C | inactive: -1.15%
53 | CP(=O)(Nc1ccc2c(c1)OCCO2)Oc1ccccc1 (stereo not given) | inactive: -0.01%
54 | CCOP(C)(=S)SCC(=O)NC(C)(CC)C(=O)O (stereo not given) | inactive: -0.93%
55 | c1nnnn1CCn1cnnn1 | inactive: -2.58%
56 | CC(C)C(=O)NC(Sc1ccccc1)C(Cl)(Cl)Cl (stereo not given) | inactive: -1.92%
57 | O=P(Nc1nccs1)(c1ccccc1)c1ccccc1 | inactive: 0.76%
58 | O=C(OCCN1CCN(CCOCc2ccccc2)CC1)C(O)(c1ccccc1)c1ccccc1 | inactive: -1.21%
59 | CP(=O)(Nc1ccccc1F)Oc1ccccc1 (stereo not given) | inactive: -0.96%
60 | CC(C)c1ccc(OP(C)(=O)Nc2ccc(SC(F)(F)F)cc2)cc1 (stereo not given) | inactive: -1.01%
61 | O=P1(Nc2nc3ccc(Cl)cc3s2)COc2ccccc2O1 (stereo not given) | inactive: -0.32%
62 | CP(=O)(Nc1ccccc1)Oc1ccc(F)cc1 (stereo not given) | inactive: -2.03%
63 | COC(=O)c1cc2c(s1)N=C(c1ccccc1)N(C)P2(=O)N1CCOCC1 (stereo not given) | inactive: -1.06%
64 | CC(=O)NC(SC(=S)N(CC(C)C)CC(C)C)C(Cl)(Cl)Cl (stereo not given) | inactive: -2.54%
65 | CCN(CC)CCCOC(=O)C(O)(c1ccccc1)C1CCCCC1 (stereo not given) | inactive: -1.8%
